The source of these data is US9448243B2, “Weak affinity chromatography” (priority 2013, dated 2016).

Sequences of proteins named here, by UniProt entry; tags and fusion partners are left off. Residues count along the entry.
UniProt P02769, 25-607: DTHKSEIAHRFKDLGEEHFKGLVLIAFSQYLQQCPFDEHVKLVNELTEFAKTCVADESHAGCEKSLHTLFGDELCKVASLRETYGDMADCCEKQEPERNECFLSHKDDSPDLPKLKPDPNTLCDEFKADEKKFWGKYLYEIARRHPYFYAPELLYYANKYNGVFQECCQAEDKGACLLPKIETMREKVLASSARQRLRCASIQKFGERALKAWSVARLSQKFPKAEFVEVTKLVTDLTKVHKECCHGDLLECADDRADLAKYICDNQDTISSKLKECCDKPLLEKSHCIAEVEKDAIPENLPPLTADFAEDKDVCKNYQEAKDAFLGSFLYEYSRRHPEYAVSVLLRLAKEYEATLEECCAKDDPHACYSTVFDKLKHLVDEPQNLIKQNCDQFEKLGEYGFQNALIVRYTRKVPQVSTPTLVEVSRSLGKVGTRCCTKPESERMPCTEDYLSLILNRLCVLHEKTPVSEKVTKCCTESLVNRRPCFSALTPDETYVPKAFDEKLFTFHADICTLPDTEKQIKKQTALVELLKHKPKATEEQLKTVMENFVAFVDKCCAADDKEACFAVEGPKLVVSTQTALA
UniProt P02768, 25-609: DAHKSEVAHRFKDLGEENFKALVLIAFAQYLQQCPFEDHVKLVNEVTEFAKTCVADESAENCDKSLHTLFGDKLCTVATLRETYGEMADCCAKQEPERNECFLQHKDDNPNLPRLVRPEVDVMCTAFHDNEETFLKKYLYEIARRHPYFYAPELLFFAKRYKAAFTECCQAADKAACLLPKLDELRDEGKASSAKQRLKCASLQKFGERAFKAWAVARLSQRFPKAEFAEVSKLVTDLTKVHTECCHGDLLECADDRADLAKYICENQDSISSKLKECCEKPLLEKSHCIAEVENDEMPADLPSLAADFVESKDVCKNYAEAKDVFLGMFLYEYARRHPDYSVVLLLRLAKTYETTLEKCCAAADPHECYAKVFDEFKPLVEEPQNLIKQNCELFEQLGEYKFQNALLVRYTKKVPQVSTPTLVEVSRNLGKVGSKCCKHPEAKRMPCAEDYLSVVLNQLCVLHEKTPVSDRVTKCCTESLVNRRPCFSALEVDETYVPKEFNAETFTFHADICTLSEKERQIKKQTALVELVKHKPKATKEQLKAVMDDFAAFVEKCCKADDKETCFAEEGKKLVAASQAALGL

For test [1], the target named is bovine serum albumin (BSA) (Bos taurus, UniProt P02769). Kind of test: Weak affinity chromatography of steroids on BSA columns (columns B, C). The settings on record: 20° C.; for k′ (capacity factor), Column B: BSA 96% purity, 66 mg/g silica; for k′ (capacity factor), Column C: BSA 99% purity, 77 mg/g silica. It is filed as binding. Here is the method: (§1) Four columns were prepared, a blank diol-silica column (column A) having no binding ligands and 3 columns (columns B, C, D) loaded with albumin as the binding ligand. Column B was a silica packed column (7 μm, 300 Å porosity) loaded with 96% purity bovine serum albumin (BSA) at a concentration of 66 mg of BSA per gram of silica. Column C was a silica packed column (7 μm, 300 Å porosity) loaded with 99% purity bovine serum albumin (BSA) at a concentration of 77 mg of BSA per gram of silica. Column D was a silica packed column (7 μm, 300 Å porosity) loaded with 99% purity human serum albumin (HSA) at a concentration of 118 mg of HSA per gram of silica. All four column dimensions were 2.1×50 mm stainless steel. Immobilization of the ligands was performed batchwise with periodate activation. 0.5 g of diol-silica was used with 5 ml of H2O added. The silica was sonicated for 2 minutes, and 0.5 g of periodic acid was added to convert the diol groups to aldehyde-groups. After 2 hours of mixing, the aldehyde-silica was washed with 100 mM phosphate, pH 7.0. 5 ml of the respective ligand in 100 mM phosphate buffer, pH 7.0, was prepared. Ligand concentration was 10 mg/ml. 250 μl NaCNBH3, concentration of 0.1 mg/ml, was added. Coupling time was 40 hours at room temperature (22° C.) on mixing table.
The system comprised the columns used in an Agilent 1200-LC-MS system. The steroids were all dissolved in ethanol at a concentration of 0.05 μg/μl. 2 μl samples were run in duplicate. Solvent buffers used included phosphate buffered saline (PBS) at pH 7.4 and 5 mM ammonium-acetate (Am-Ac) salt, pH 6.9. Column temperature was 20° C. with a flow rate of 0.400 ml/min. Detection included the use of UV diode-array detector (DAD) at 237 nm.
The columns were tested with the PBS buffer and the Am-Ac listed above. The capacity factor (k′) and dissociation constant (Kd) were determined as set forth in U.S. Pat. No. 4,879,247 issued on Nov. 7, 1989 to Sten Ohlson, which is hereby incorporated by reference in its entirety.

In test [2] the target is human serum albumin (HSA) (Homo sapiens, UniProt P02768). As to the kind of experiment: Weak affinity chromatography of steroids on HSA column. It is filed as binding. The settings on record: HSA 99% purity, 118 mg/g silica, 20° C. Here is the method:
as §1, with “250 μl NaCNBH3, concentration of 0.1 mg/ml, was added. Coupling time was 40 hours at room temperature (22° C.) on mixing table.” left out
The columns were tested with the PBS buffer and the Am-Ac listed above. The capacity factor (k′) and dissociation constant (Kd) were determined as set forth in U.S. Pat. No. 4,879,247 issued on Nov. […]

As to `C[C@]12C=CC(=O)C=C1CC[C@@H]1[C@@H]2[C@@H](O)C[C@@]2(C)[C@H]1CC[C@]2(O)C(=O)CO` [Prednisolone, prednisolone], the entries for the “k′ (capacity factor), Column B” value in test [1] (5 mM Am-Ac buffer pH 6.9) and in test [1] (PBS buffer pH 7.4) were 1.13 and 1.27, respectively. Further, the entries for the “k′ (capacity factor), Column C” value in test [1] (5 mM Am-Ac buffer pH 6.9) and in test [1] (PBS buffer pH 7.4) were 1.34 and 1.41, respectively. Moreover, the “k′ (capacity factor), Column D” value in test [2] (5 mM Am-Ac buffer pH 6.9) was 1.56; in test [2] (PBS buffer pH 7.4), 1.64.
